# Antibody variant affinities, Ab-14 heavy chain, assay 1

The target is the same throughout: PDVDLGDISGINAS, from the HR2 region of SARS-CoV-2 spike.

Parent scFv Ab-14: VH joined to VL by a (GGGGS)3 linker. Changes lie in the heavy chain CDRs alone.
VH: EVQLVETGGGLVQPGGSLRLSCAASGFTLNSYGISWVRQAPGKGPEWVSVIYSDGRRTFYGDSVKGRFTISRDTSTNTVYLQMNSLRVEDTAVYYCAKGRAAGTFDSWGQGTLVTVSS
VL: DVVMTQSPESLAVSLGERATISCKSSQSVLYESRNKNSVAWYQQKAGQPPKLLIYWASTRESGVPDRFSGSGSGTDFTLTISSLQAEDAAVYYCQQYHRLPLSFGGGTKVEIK

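The parent was found by panning a naive human phage display library on the peptide. In library AAYL49, one, two or three CDR residues were substituted; doubles and triples were drawn at random. The scFvs were displayed on barcoded MATa yeast, the peptide on MATalpha yeast. After mating in shaken culture at 30 °C for 16 h, diploids were selected and their barcode pairs sequenced. Read counts were normalised to the haploid input and turned into Kd by a linear fit to BCL2-family pairs of known affinity, for each replicate. Mating was done three times.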

Substitutions are numbered in sequence along the VH above, starting at 1 (not Kabat). Scale: log10 of Kd in nM, estimated from mating counts; low values are strong binders. Replicates are averaged; those with no signal do not enter the mean. An entry "ND" has no value in the source: the pair was not observed among the diploids in that replicate. This suggests poor binding but is not conclusive.

| # | changes | log10 Kd, replicates | mean, log10 nM | signal with controls |
|---|---|---|---|---|
| 1 | Y52R/R56W/R100N | ND / 2.86 / ND | 2.86 | 1/9 (3.37) |
| 2 | R57P/F59A/K65L | 5.28 / 4.02 / 4.20 | 4.50 | 5/9 (4.97) |
| 3 | R57F/Y60G/D62Q | ND / ND / ND | ND | 0/9 |
| 4 | S35G/Y52W/F105K | 3.46 / ND / ND | 3.46 | 1/9 (2.84) |
| 5 | Y32C/G55Y/V64D | ND / ND / ND | ND | 3/9 (2.86) |
| 6 | F27A/L29P/S53M | ND / ND / ND | ND | 2/9 (3.97) |
| 7 | G61F/D62L/K65F | ND / ND / 4.63 | 4.63 | 2/9 (4.34) |
| 8 | Y60G/K65F/G99I | ND / ND / ND | ND | 0/9 |
| 9 | R57N/Y60R/K65M | ND / 4.13 / ND | 4.13 | 4/9 (4.31) |
| 10 | G33C/R56S/Y60T | ND / ND / 5.02 | 5.02 | 3/9 (4.01) |
| 11 | G33E/G55H/T58Q | ND / ND / ND | ND | 2/9 (3.87) |
| 12 | R100M/A102E/T104H | ND / ND / ND | ND | 0/9 |
| 13 | Y52E/T58E/S63D | ND / ND / ND | ND | 0/9 |
| 14 | T28E/Y52N | 4.10 / ND / 4.98 | 4.54 | 3/9 (4.45) |
| 15 | I34T/R57M/G99V | 5.99 / ND / ND | 5.99 | 3/9 (4.30) |
| 16 | S53H/T58Q/R100Q | 3.08 / 3.24 / 3.33 | 3.22 | 4/9 (3.93) |
| 17 | I34P/G55C/R100F | ND / ND / ND | ND | 2/9 (3.75) |
| 18 | S63T/R100H/S107E | 1.49 / 1.49 / 1.50 | 1.49 | 3/9 (4.79) |
| 19 | T28A/S63K/G103H | 0.54 / 0.95 / 0.87 | 0.79 | 0/9 |
| 20 | Y52L/S53L/D54K | 3.49 / 4.31 / 5.28 | 4.36 | 8/9 (4.91) |
| 21 | S35Y/G103Y | ND / ND / ND | ND | 0/9 |
| 22 | Y52C/V64L | ND / 4.48 / ND | 4.48 | 1/9 (4.30) |
| 23 | T28M/D62H/R100Q | 1.41 / 1.30 / 1.65 | 1.45 | 0/9 |
| 24 | T28C/I51M/D54G | ND / ND / ND | ND | 0/9 |
| 25 | V50F/A101Y | ND / ND / ND | ND | 0/9 |
| 26 | Y52M/D54C | ND / 5.15 / ND | 5.15 | 1/9 (3.78) |
| 27 | T28A/N30G/V50P | ND / ND / 2.49 | 2.49 | 0/9 |
| 28 | G26V/N30C/Y60H | ND / 4.87 / ND | 4.87 | 0/9 |
| 29 | T58P/D62V/T104I | ND / ND / ND | ND | 1/9 (4.45) |
| 30 | F27K/D54C/K65Y | ND / ND / ND | ND | 0/9 |

Extract of 2 entries:

changes,"log10 Kd, replicates","mean, log10 nM",signal with controls
R100M/A102E/T104H,ND / ND / ND,ND,0/9
S53H/T58Q/R100Q,3.08 / 3.24 / 3.33,3.22,4/9 (3.93)

Parent in this assay: reference entry 0.65, copy in this library 4.11 (one replicate of three). As a blank, each scFv also met three strains without target: over library AAYL49, 15% of these pairings were detected, typically at 4.06 and seldom below 2.83. For each scFv, signals with the empty controls are counted beside the result, with their mean in brackets.

Reference: Engelhart et al. 2022, doi:10.1038/s41597-022-01779-4. File: FLAb, binding data.